From PubChem
UUG fidelity – yeast start codon fidelity modulation | S. cerevisiae UUG-firefly luciferase reporter, luminescence/redox ratio | activity score, % at 18.7 µM | 350,000 tested, 0.13% active;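 active = replicate mean at a twofold rise or more, about +100% in these data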;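 also: firefly luciferase made from a UUG start codon reports start codon fidelity; reporter light over untreated wells divided by growth signal over untreated wells; some hits fall short of that in this replicate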
esBAF inh – blocks esBAF chromatin remodeling in mouse ES cells. Bmi1-luciferase knock-in reporter, 24 h; 100% = twice the neutral-well signal. reporter increase, % at 12.5 µM. hit rate 2% among 350,000. AID 602393; in the data active = activation above about 40%; inconclusive = no clear call, values can overlap the other calls;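 note: 0% = median of the plate's neutral control wells and 100% = double that signal; a rise in the Bmi1 reporter signal indicates esBAF inhibition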
miR122 inh – miR-122 inhibition in Huh7 cells; Huh7 miR-122 Renilla luciferase sensor, 48 h; neutral wells = 0, positive control = 100; activation (reporter increase), % at 12.5 µM; hit rate 0.3% among 340,000;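 active = mean replicate activation score at least 90 and every replicate individually at or above 90; inconclusive = only one of the two criteria met; inactive = neither criterion met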;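 note: higher luciferase means less miR-122 activity so hits act as miR-122 inhibitors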
Wnt act – activates Wnt/beta-catenin signaling in a reporter cell assay; activator, plate reader; activation, % at 9.35 µM; hit rate 1.2% among 300,000; in the data active = activation above about 30%, passing the limit was not always enough; inconclusive = no clear call, values can overlap the other calls;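 note: 0% = neutral control wells and 100% = positive control wells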
PglD inh – blocks C. jejuni PglD acetyltransferase activity; AID 602405; purified PglD enzyme, DTNB colorimetric CoA detection; inhibition, % at 12.5 µM; hit rate 0.098% among 360,000; in the data active = inhibition above about 16%, passing the limit was not always enough; inconclusive = no clear call, values can overlap the other calls
MITF act – MITF TRPM1 promoter activation in melanoma cells; SK-MEL-5 TRPM1-promoter luciferase, 24 h; % of positive control, neutral wells = 0; hit rate 0.75% among 300,000; activation, % at 12.5 µM;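 active = mean activation of at least 80% with every replicate also reaching 80%; inconclusive = mean reaches 80% but some replicate falls short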;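 note: 0% = neutral control wells and 100% = parthenolide positive control wells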
Starred values were filed as active, the others as inactive; ? = inconclusive; / = no result; [ ] = another dose, or the depositor's remark. Hits are enriched below; roughly 2.8% of the tested compounds scored in any of these assays.

| UUG fidelity | esBAF inh | miR122 inh | Wnt act | PglD inh | MITF act | Structure |
| --- | --- | --- | --- | --- | --- | --- |
| -10 | 3 | 148* | 3 | -2 | -6 | O=S(=O)(NC(=NCc1ccccc1)c1ccc(F)cc1)c1ccc(Cl)cc1 |
| 10 | 5 | -15[16.7 µM] | / | -1 | / | Cc1noc(C)c1NC(=O)Nc1ccc2c(c1)C(=O)N([C@@H](C)CO)C[C@@H](C)[C@H](CN(C)C(=O)Nc1cccc3ccccc13)OCCCC[C@@H](C)O2 |
| / | 1 | / | / | 4 | / | CCCNC(=O)N1C[C@H](C)[C@H](OC)CN(C)C(=O)c2ccc(NC(=O)C3CCC3)cc2OC[C@@H]1C |
| / | 3 | -1[16.7 µM] | / | / | / | Cc1ccc(S(=O)(=O)Nc2ccc3c(c2)C(=O)N([C@H](C)CO)C[C@@H](C)[C@H](CN(C)Cc2ccc(Oc4ccccc4)cc2)O3)cc1 |
| 6 | -4 | 8 | -2 | 10 | -46 | Cc1[nH]c2ccccc2c1C(=O)C(C)OC(=O)c1ccc([N+](=O)[O-])o1 (centres undefined) |
| -9 | 5 | 3 | 47* | -7 | -13 | CCc1noc(C)c1C(=O)OC(C)C(=O)c1c(C)[nH]c2ccccc12 (centres undefined) |
| -25 | -1 | -4 | 24 | -7 | / | O=C(NCCc1ccc(Cl)cc1)c1ccc2c(c1)OCCO2 |
| -12 | 39 | -4 | 20 | 1 | 98* | O=C(NCCOc1ccc(Cl)cc1)c1ccc2c(c1)OCCO2 |
| -15 | / | 4 | 37* | 1 | 46 | O=C(NCCc1ccc(Cl)cc1)c1ccc2c(c1)OCO2 |
| -7 | / | -4 | 31* | -4 | / | CC(C)(C)c1ccc(CCC2OCC(C[N+]3(C)CCOCC3)O2)cc1 (centres undefined) |

6 entries picked at random from those above:
| UUG fidelity | esBAF inh | miR122 inh | Wnt act | PglD inh | MITF act | Structure |
| --- | --- | --- | --- | --- | --- | --- |
| -9 | 5 | 3 | 47* | -7 | -13 | CCc1noc(C)c1C(=O)OC(C)C(=O)c1c(C)[nH]c2ccccc12 (centres undefined) |
| -15 | / | 4 | 37* | 1 | 46 | O=C(NCCc1ccc(Cl)cc1)c1ccc2c(c1)OCO2 |
| / | 3 | -1[16.7 µM] | / | / | / | Cc1ccc(S(=O)(=O)Nc2ccc3c(c2)C(=O)N([C@H](C)CO)C[C@@H](C)[C@H](CN(C)Cc2ccc(Oc4ccccc4)cc2)O3)cc1 |
| / | 1 | / | / | 4 | / | CCCNC(=O)N1C[C@H](C)[C@H](OC)CN(C)C(=O)c2ccc(NC(=O)C3CCC3)cc2OC[C@@H]1C |
| -10 | 3 | 148* | 3 | -2 | -6 | O=S(=O)(NC(=NCc1ccccc1)c1ccc(F)cc1)c1ccc(Cl)cc1 |
| -7 | / | -4 | 31* | -4 | / | CC(C)(C)c1ccc(CCC2OCC(C[N+]3(C)CCOCC3)O2)cc1 (centres undefined) |

(next part)
| UUG fidelity | esBAF inh | miR122 inh | Wnt act | PglD inh | MITF act | Structure |
| --- | --- | --- | --- | --- | --- | --- |
| -6 | -6 | -7[16.7 µM] | / | 1 | / | O=C(C[C@@H]1CC[C@@H]2[C@H](COC[C@@H](O)CN2Cc2ccc(F)cc2)O1)NCc1ccccc1Cl |
| 7 | 46* | 0 | 7 | -3 | 51 | O=C(c1ccco1)N1CCN(Cc2ccc(F)cc2Cl)CC1 |
| / | / | / | 42* | / | 3 | O=C(c1ccco1)N1CCN(S(=O)(=O)Cc2ccc(Cl)cc2)CC1 |
| / | 2 | / | / | -1 | / | O=C(NCCN1CCCC1)[C@H]1[C@H](CO)[C@H]2Cn3c(cccc3=O)[C@@H]1N2C(=O)c1ccccc1 |
| -19 | 47* | -4 | 10 | -9 | 63 | C=CCn1c(N)c(C(=O)NCCC2=CCCCC2)sc1=S |
| / | 0 | 8[16.7 µM] | / | / | / | C[C@@H]1CN([C@H](C)CO)C(=O)c2cc(NC(=O)Cc3ccccc3)ccc2O[C@@H](C)CCCCO[C@H]1CN(C)C |
| -9 | 0 | -7[16.7 µM] | / | 4 | / | CO[C@H]1CN(C)C(=O)c2ccc(NS(C)(=O)=O)cc2OC[C@@H](C)N(C(=O)C2CCOCC2)C[C@@H]1C |
| -15 | -2 | -6 | 40* | -4 | 5 | CC(=O)Nc1ccc(NC(=O)CN(c2ccccc2Cl)S(C)(=O)=O)cc1 |
| -12 | -5 | -3 | / | -2 | 2 | COc1ccc2c(C)c(Cl)c(=O)oc2c1 |
| -27 | -49 | -6 | 0 | -2 | -72 | Nc1ccc(-c2cc3ccccc3c(=O)o2)cc1 |
| -7 | 41* | 2 | 10 | 3 | / | COc1ccc2c(c1)oc(=O)c1ccccc12 |
| 6 | 79* | 1 | 6 | 5 | 92* | COc1ccc2c(c1)oc(=O)c1cc(OC)ccc12 |
| -21 | 48* | -4 | 9 | -3 | 40 | COc1cc(OC)cc(-c2cc3ccccc3c(=O)o2)c1 |
| -4 | 0 | 3[16.7 µM] | / | 0 | / | CCNC(=O)Nc1ccc2c(c1)C(=O)N(C)[C@H]1CC[C@H](CC(=O)NCc3ccc(F)cc3)O[C@H]1CO2 |
| / | -6 | 2[16.7 µM] | / | / | / | CCCC#Cc1ccc2c(c1)O[C@@H](CN(C)S(=O)(=O)c1cccc(OC)c1)[C@H](C)CN([C@H](C)CO)S2(=O)=O |
| 4 | -5 | 5[16.7 µM] | / | -36 | / | Cc1noc(C)c1NC(=O)Nc1ccc2c(c1)CC(=O)N([C@H](C)CO)C[C@@H](C)[C@H](CN(C)S(=O)(=O)c1c(C)noc1C)O2 |
| -27 | / | 7 | 10 | 1 | / | N#C/C(=N\Nc1ccc(F)cc1)C(=O)C1CC1 |
| -7 | / | 19 | 39* | -9 | / | N#C/C(=N\Nc1ccc(Cl)c(Cl)c1)C(=O)C1CC1 |
| / | -5 | 6[16.7 µM] | / | 5 | / | O=C(NC1CCCCC1)[C@H]1[C@H](CO)[C@H]2Cn3c(cccc3=O)[C@H]2N1C(=O)CC1CC1 |
| / | ? | 3 | -1 | / | 100* | CC(=O)Nc1nnc(COc2ccc(Cl)cc2)s1 |
| / | / | / | 23 | / | / | CC(C)C(=O)Nc1nnc(COc2ccc(Cl)cc2)s1 |
| -10 | 47* | -5 | / | 1 | ? | CCCCCOc1ccc(CSc2ncn[nH]2)cc1 |
| -13 | 7 | 1 | / | 0 | 93* | CCCCOc1ccc(CSc2n[nH]c(C)n2)cc1 |
| 2 | 54* | 2 | / | -4 | / | CCOC(=O)c1[nH]nc(C(=O)c2ccc(Br)cc2)c1O |
| -26 | / | -3 | -7 | -1 | -1 | Cc1cc(C)nc(-n2nc(C)c3c(C(F)(F)F)cc(=O)[nH]c32)n1 |
| -19 | 137* | -6 | 21 | 1 | 56 | Cc1cc(C)nc(-n2nc(C)c(Sc3ccc(F)cc3)c2N)n1 |
| 0 | / | 237* | 0 | 3 | -5 | Cc1ccc(S(=O)(=O)NCCC(=O)Oc2ccc3ccc(=O)oc3c2)cc1 |
| -12 | 70* | 2 | 7 | -3 | 51 | CCC(Sc1nc2ccccc2c(=O)[nH]1)C(=O)Nc1ccc(C(C)=O)cc1 (centres undefined) |
| -13 | -1 | 2[16.7 µM] | / | -3 | / | COC(=O)C[C@@H]1C[C@H]2c3cc(NC(=O)C4CCC4)ccc3O[C@H]2[C@H](CO)O1 |
| -12 | 3 | 11[16.7 µM] | / | 2 | / | O=C(C[C@@H]1C=C[C@H](NC(=O)C2CCOCC2)[C@@H](CO)O1)NCC1CC1 |
| -35 | -12 | -3 | 60* | 0 | 101* | Nc1ccc(C(=O)OCCc2ccccc2)cc1 |
| -30 | -9 | -6 | 51* | 5 | 42 | O=C(OCCc1ccccc1)c1cc(O)c(O)c(O)c1 |
| -29 | 50* | 5 | 17 | 1 | 130* | COc1ccc(C(=O)OCCc2ccc(O)cc2)cc1 |
| -19 | 0 | 3 | 1 | -1 | -4 | COc1ccc(CCOC(=O)c2ccc(NC(=O)CC#N)cc2)cc1 |
| -10 | 68* | 4 | 20 | 2 | 60 | COC(=O)c1ccc(COC(=O)CNC(=O)c2ccc(OC)cc2)cc1 |
| -5 | / | / | / | 0 | / | COc1cc2c(cc1OC)CN(C(=O)[C@H]1[C@@H]3C(=O)O[C@@H](c4ccccc4)[C@@H](c4ccccc4)N3[C@@H](c3ccc(O)cc3)[C@]13C(=O)Nc1ccccc13)CC2 |
| -2 | -10 | 23[16.7 µM] | / | -2 | / | COC(=O)C[C@@H]1C[C@H]2c3cc(NC(=O)CN(C)C)ccc3O[C@H]2[C@@H](CO)O1 |
| 3 | -1 | 8[16.7 µM] | / | -2 | / | COCC(=O)Nc1ccc2c(c1)C(=O)N(C)[C@@H]1CC[C@H](CC(=O)Nc3ccccc3)O[C@@H]1CO2 |
| -18 | ? | 0 | 35* | 8 | 81* | c1csc(-c2nc(N3CCCCC3)no2)c1 |
